# scFv variants of Ab-14 (light chain) against a SARS-CoV-2 spike peptide

Target peptide (SARS-CoV-2 spike, HR2 region): PDVDLGDISGINAS

The variants keep the heavy chain, the linker and the frameworks of Ab-14 (scFv order VH, the linker GGGGSGGGGSGGGGS, VL).
VH: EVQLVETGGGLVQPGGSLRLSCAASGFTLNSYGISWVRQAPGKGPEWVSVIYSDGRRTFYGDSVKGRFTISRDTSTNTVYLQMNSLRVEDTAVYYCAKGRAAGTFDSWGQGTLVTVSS
VL: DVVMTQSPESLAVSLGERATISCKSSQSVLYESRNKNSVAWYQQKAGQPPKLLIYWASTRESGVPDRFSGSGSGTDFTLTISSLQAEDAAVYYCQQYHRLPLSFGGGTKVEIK

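These sequences belong to a second round, designed from the earlier measurements on random variants of the parent. Their group label is 14L_En_Gen (En: ensemble of fine-tuned language models; Gen: genetic algorithm). AlphaSeq pools MATa yeast showing the antibodies with MATalpha yeast showing the peptide. Mating (16 h, 30 °C) was followed by selection of diploids and sequencing of their barcodes. Each replicate has its own calibration line, from reference interactions of the BCL2 family. There are six technical replicates.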

The parent's light chain CDRs are KSSQSVLYESRNKNSVA, WASTRES, QQYHRLPLS; each variant's own CDRs replace them letter for letter.
Numbers give log10(Kd / nM), so 0 is 1 nM and 3 is 1 µM. Smaller is tighter.
"ND" marks a missing value. The strain was present, yet no cells mated with the target were sequenced in that replicate, which points to weak or no binding.
A sequence measured in both rounds can read differently, since the two assays cover different ranges.
Of ten entries with the parent sequence, four were seen in most replicates (averages 0.34 to 2.37), three in one and three in none, so single entries are noisy.
In the paper, a design with two or fewer of six values counts as a poor binder.
Three control strains display no target. For all light chain designs, 4% of the pairings with them gave a signal, with a median of 2.64 and one signal in twenty below 1.59, so weak values seen in few replicates may be background. The control count says in how many pairings with the empty strains this scFv gave a signal, with their mean in brackets.

{"CDR-L1": "KISMVMENQLKNRNSVA", "CDR-L2": "ELVTRMA", "CDR-L3": "QQYNRLPLS", "log10 Kd (nM) by replicate": "1.27 / 0.88 / -0.12 / 0.16 / 0.22 / 0.73", "signal with controls": "0/18"}
{"CDR-L1": "KLSFSTEMEHVNRNSVA", "CDR-L2": "ELVTRMS", "CDR-L3": "QQYNRLPLS", "log10 Kd (nM) by replicate": "0.23 / -0.30 / -0.08 / -0.32 / 0.04 / 0.17", "signal with controls": "0/18"}
{"CDR-L1": "MISQLMNMGQFAINSVA", "CDR-L2": "QATIRNS", "CDR-L3": "QQYDRLPLA", "log10 Kd (nM) by replicate": "1.64 / 2.37 / 1.38 / ND / 2.59 / 1.49", "signal with controls": "2/18 (2.82)"}
{"CDR-L1": "KIGATLNMMMHKNNNVA", "CDR-L2": "DLVTREN", "CDR-L3": "QQYHRLPLS", "log10 Kd (nM) by replicate": "0.31 / 0.02 / 0.06 / 0.17 / 0.05 / 0.36", "signal with controls": "0/18"}
{"CDR-L1": "TIAQAMDHLQRNRNNVA", "CDR-L2": "DTNCRED", "CDR-L3": "QDYNRLPLS", "log10 Kd (nM) by replicate": "-0.15 / 0.12 / 0.02 / -0.02 / -0.20 / 0.21", "signal with controls": "1/18 (3.25)"}
{"CDR-L1": "KFSQMANAMSVSHSAVA", "CDR-L2": "EMSTRED", "CDR-L3": "QQYNRLPLS", "log10 Kd (nM) by replicate": "0.41 / 0.10 / 0.25 / -0.10 / -0.07 / -0.02", "signal with controls": "2/18 (2.45)"}
{"CDR-L1": "KIGGTLNQLMHKKNNVA", "CDR-L2": "DLVERET", "CDR-L3": "QQYFRLPLS", "log10 Kd (nM) by replicate": "0.23 / 0.40 / -0.05 / 0.15 / 0.20 / 0.06", "signal with controls": "1/18 (1.48)"}
{"CDR-L1": "MISQLYNMGQFAINSVA", "CDR-L2": "QASVRNA", "CDR-L3": "QQYDRLPLT", "log10 Kd (nM) by replicate": "1.72 / 3.07 / 1.53 / 1.96 / 2.74 / 2.07", "signal with controls": "1/18 (2.02)"}
{"CDR-L1": "MISQVLNTLYATGNNVA", "CDR-L2": "DLQERED", "CDR-L3": "QQYFRLPLS", "log10 Kd (nM) by replicate": "ND / 1.79 / ND / ND / ND / 2.14", "signal with controls": "1/18 (2.97)"}
{"CDR-L1": "NISHFMDVTAKHNNNVA", "CDR-L2": "EMTMREQ", "CDR-L3": "QQYHHLPLS", "log10 Kd (nM) by replicate": "1.65 / 1.85 / 1.91 / ND / 1.44 / 3.12", "signal with controls": "0/18"}
{"CDR-L1": "IVSQLMMWGMHAKNSIA", "CDR-L2": "EAVTRVN", "CDR-L3": "QQYDRLPLF", "log10 Kd (nM) by replicate": "1.57 / 1.72 / 1.88 / ND / 1.82 / ND", "signal with controls": "0/18"}
{"CDR-L1": "KLTMITGLEKVSKSNVA", "CDR-L2": "EMETREE", "CDR-L3": "QQYNRLPLS", "log10 Kd (nM) by replicate": "0.71 / 0.54 / 0.52 / 0.51 / 0.27 / 0.18", "signal with controls": "0/18"}
{"CDR-L1": "MLSDVARGLTRKEDSVA", "CDR-L2": "DNSTRED", "CDR-L3": "QQYDRLPLS", "log10 Kd (nM) by replicate": "2.39 / ND / ND / ND / ND / 3.87", "signal with controls": "0/18"}
{"CDR-L1": "IIDQIMYHGNKRANSIA", "CDR-L2": "QASERLN", "CDR-L3": "QQYHHLPLD", "log10 Kd (nM) by replicate": "3.28 / ND / 1.82 / ND / ND / ND", "signal with controls": "0/18"}
{"CDR-L1": "TISQMTSLFSQTINNVA", "CDR-L2": "EVSTREQ", "CDR-L3": "QQYDRLPLM", "log10 Kd (nM) by replicate": "1.07 / 0.60 / 0.74 / 0.62 / 0.90 / 0.94", "signal with controls": "2/18 (2.66)"}
{"CDR-L1": "MISQVLNTLTKEGSNVA", "CDR-L2": "DLAERER", "CDR-L3": "QQYFRLPLS", "log10 Kd (nM) by replicate": "1.84 / 0.97 / 1.29 / 2.23 / 2.08 / 1.35", "signal with controls": "0/18"}
{"CDR-L1": "MISQLYNMGSFAVNSVA", "CDR-L2": "QASERCN", "CDR-L3": "QQYDRLPLI", "log10 Kd (nM) by replicate": "1.38 / 1.27 / 1.25 / 1.19 / 1.71 / 1.97", "signal with controls": "1/18 (2.07)"}
{"CDR-L1": "MISNLMNMGSFAINSVA", "CDR-L2": "QASIRNS", "CDR-L3": "QQYDRLPLI", "log10 Kd (nM) by replicate": "1.36 / 1.45 / 1.18 / 1.81 / 2.11 / 1.69", "signal with controls": "0/18"}
{"CDR-L1": "MISNVMNTLTRVGNNVA", "CDR-L2": "DLSEREN", "CDR-L3": "QQYFRLPLS", "log10 Kd (nM) by replicate": "1.44 / 1.27 / 0.95 / ND / 1.18 / 1.52", "signal with controls": "0/18"}
{"CDR-L1": "IVSQLMLWGWHAKNSIA", "CDR-L2": "EAQTRAN", "CDR-L3": "QQYDRLPLF", "log10 Kd (nM) by replicate": "ND / 1.48 / 2.36 / 3.04 / 2.10 / 3.48", "signal with controls": "1/18 (2.00)"}

The closing 2 entries, repeated:

{"CDR-L1": "MISNVMNTLTRVGNNVA", "CDR-L2": "DLSEREN", "CDR-L3": "QQYFRLPLS", "log10 Kd (nM) by replicate": "1.44 / 1.27 / 0.95 / ND / 1.18 / 1.52", "signal with controls": "0/18"}
{"CDR-L1": "IVSQLMLWGWHAKNSIA", "CDR-L2": "EAQTRAN", "CDR-L3": "QQYDRLPLF", "log10 Kd (nM) by replicate": "ND / 1.48 / 2.36 / 3.04 / 2.10 / 3.48", "signal with controls": "1/18 (2.00)"}

From the AlphaSeq antibody data of Li et al. 2023 (doi:10.1038/s41467-023-39022-2), copy in the FLAb collection.